Assay results: the NIST ThermoML archive (doi:10.1016/j.fluid.2018.09.024)
Numbers after ± are expanded uncertainties.

Assay: activity coefficient (dimensionless); of the first substance listed, at infinite dilution; xn = mol fraction of the nth substance listed
Details: 101.33 kPa, Liquid, Chromatography, x1 = 0

Structure (SMILES) | activity coefficient (328.15 K) | activity coefficient (338.15 K) | activity coefficient (348.15 K) | activity coefficient (358.15 K) | activity coefficient (368.15 K) | activity coefficient (378.15 K) | activity coefficient (318.15 K)
CCCCOCCCC [dibutyl ether] + CCCCCCCCCCCC[N+](C)(C)CCOc1ccccc1.N#C[N-]C#N | 4.66 ± 0.32 | 4.76 ± 0.32 | 4.85 ± 0.33 | 4.92 ± 0.34 | 4.99 ± 0.34 | 5.08 ± 0.35 | –
CCCCOCCCC [dibutyl ether] + CCCCCCCCCCCC[N+](C)(C)CCOc1ccccc1.O=S(=O)([N-]S(=O)(=O)C(F)(F)F)C(F)(F)F | 2.68 ± 0.18 | 2.74 ± 0.19 | 2.81 ± 0.19 | 2.88 ± 0.2 | 2.94 ± 0.2 | – | 2.61 ± 0.18
